From PubChem BioAssay AID624037 (The Scripps Research Institute Molecular Screening Center, 2012)
The list shows a part of the results, in another mix than the full data. Activity calls are given as the source filed them.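 Rule for the calls: active = activation above the run's mean over test compounds plus 3 SD (cut at about 23% in these data); inactive = the rest.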

The chains behind the UniProt entries cited, without tags or fusion partners.
UniProt P08912, whole entry, looked up: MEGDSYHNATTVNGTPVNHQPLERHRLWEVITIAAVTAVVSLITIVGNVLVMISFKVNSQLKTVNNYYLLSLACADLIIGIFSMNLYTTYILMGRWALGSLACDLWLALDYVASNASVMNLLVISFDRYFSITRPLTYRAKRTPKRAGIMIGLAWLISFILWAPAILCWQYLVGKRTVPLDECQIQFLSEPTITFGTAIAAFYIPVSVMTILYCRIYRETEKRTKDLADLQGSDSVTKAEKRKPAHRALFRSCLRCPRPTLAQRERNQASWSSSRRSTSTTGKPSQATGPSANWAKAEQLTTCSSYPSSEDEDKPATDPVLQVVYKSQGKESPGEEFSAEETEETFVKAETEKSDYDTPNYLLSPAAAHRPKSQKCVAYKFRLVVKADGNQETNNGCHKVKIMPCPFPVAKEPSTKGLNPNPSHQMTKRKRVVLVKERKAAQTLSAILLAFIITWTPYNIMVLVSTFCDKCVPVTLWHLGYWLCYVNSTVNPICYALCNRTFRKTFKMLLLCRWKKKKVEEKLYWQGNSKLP

Biological target: Muscarinic acetylcholine receptor M5 (Homo sapiens) (UniProt P08912)
Assay: human M5 muscarinic receptor agonists, primary screen, CHO-K1 cells, Fluo-8 calcium fluorescence (AID 624037);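 note: signal is peak over basal fluorescence ratio across the kinetic read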
Settings: CHO-K1 hM5 cells, at 3 µM, hits give high values, 0% DMSO wells, 100% maximal acetylcholine response

Row | Structure (SMILES) | activation
1 | CC(C)C(=O)NC(Sc1ccccc1)C(Cl)(Cl)Cl (stereo not drawn) | inactive: -7.87%
2 | O=P(Nc1nccs1)(c1ccccc1)c1ccccc1 | inactive: -0.46%
3 | O=P(Nc1nc2ccccc2s1)(c1ccccc1)c1ccccc1 | inactive: -1.84%
4 | C[C@H]1OP(=O)(Oc2ccccc2)[C@H](O)[C@H](O)[C@H]1N=[N+]=[N-] (stereo partly drawn) | inactive: 4.43%
5 | COc1ccc(N)c([N+](=O)[O-])c1[N+](=O)[O-] | inactive: 1.89%
6 | Nc1ccc(CCCCOc2ccccc2)cc1 | inactive: 7.51%
7 | O=P(Nc1ccccn1)(c1ccc(Br)cc1)c1ccc(Br)cc1 | inactive: -0.83%
8 | C(Cc1nn[nH]n1)Cc1nn[nH]n1 | inactive: 1.4%
9 | Nc1ccc([As](=O)(O)c2ccc([N+](=O)[O-])cc2)cc1 | inactive: -1.23%
10 | O=C(OC1CN2CCC1CC2)c1cccc(Cl)c1 (stereo not drawn) | inactive: -7.23%
11 | O=[N+]([O-])c1ccc(O)c(/C=N/Nc2ccc([N+](=O)[O-])cc2[N+](=O)[O-])c1 | inactive: -3.72%
12 | O=[N+]([O-])c1ncn(CCn2cnc([N+](=O)[O-])n2)n1 | inactive: -0.85%
13 | CC(=O)NC(SC(=S)N(C)C)C(Cl)(Cl)Cl (stereo not drawn) | inactive: 1.73%
14 | O=[As](O)(c1ccccc1)c1ccc(O)cc1 | inactive: -0.08%
15 | O=P1(N(CCCl)CCCl)OCCC2CCCCN21 (stereo not drawn) | inactive: 0.21%
16 | CC1C(=O)OC2CCN3CC4OC4(COC(=O)C(C)(O)C1(C)O)C23 (stereo not drawn) | inactive: 3.91%
17 | CCNC(=S)/N=C(\N)N[N+](=O)[O-] | inactive: -1.82%
18 | O=C(NC1CCS(=O)(=O)C1)NP(=S)(Oc1ccccc1)Oc1ccccc1 (stereo not drawn) | inactive: -5.52%
19 | c1ccc(-c2nn[nH]n2)c(-c2nn[nH]n2)c1 | inactive: 0.26%
20 | C=C1C(=O)OC2CCN3CC=C(COC(=O)C(C)(O)C4(CO4)C1C)C23 (stereo not drawn) | inactive: -2.32%
21 | Cc1ccc(NP(=O)(Oc2cccc(C)c2)Oc2cccc(C)c2)nc1 | inactive: 2.59%
22 | CCN(C(=O)COC(=O)C(O)(c1ccccc1)c1ccccc1)c1c(N)n(Cc2ccccc2)c(=O)[nH]c1=O | inactive: -3.59%
23 | CC(NC(=O)COC(=O)C(O)(c1ccccc1)c1ccccc1)c1ccccc1 (stereo not drawn) | inactive: 0.93%
24 | Cc1ccccc1OP(=O)(Nc1ccccn1)Oc1ccccc1C | inactive: -2.36%

Row | Structure (SMILES) | activation
25 | O=c1c2cc([N+](=O)[O-])ccc2[nH]c2c([N+](=O)[O-])cc([N+](=O)[O-])cc12 | inactive: 10.8%
26 | CN(C)C(=O)Oc1noc2ccccc12 | inactive: -0.96%
27 | COC(=O)c1cc2c(s1)N=C(c1ccccc1)N(C)P2(=O)N1CCOCC1 (stereo not drawn) | inactive: -0.93%
28 | Cc1ccc(OP(=O)(Nc2ccccn2)Oc2ccc(C)cc2)cc1 | inactive: -1.7%
29 | CC(=O)NC(SC(=S)N(CC(C)C)CC(C)C)C(Cl)(Cl)Cl (stereo not drawn) | inactive: 1.35%
30 | O=C(OC1CN2CCC1CC2)c1ccccc1 (stereo not drawn) | inactive: -1.43%
31 | CCC(=O)N1C2C3N(C(=O)CC)C1C1N(C(=O)CC)C(C(N1C(=O)CC)N3C(=O)CC)N2C(=O)CC | inactive: -3.09%
32 | Clc1ccc(N2CCN(Cc3c[nH]c4ncccc34)CC2)cc1 | inactive: 2.59%
33 | CCc1cc(O)c([N+](=O)[O-])c(C)c1[N+](=O)[O-] | inactive: 4.31%
34 | CC(C)(C)C(=O)NC(Sc1ccccc1)C(Cl)(Cl)Cl (stereo not drawn) | inactive: -3.58%
35 | O=P1(Nc2nc3ccc(Cl)cc3s2)COc2ccccc2O1 (stereo not drawn) | inactive: -3.36%
36 | CCOc1ccc(C2=NCC(CBr)S2)cc1 (stereo not drawn) | inactive: -1.92%
37 | CC(=O)Nc1ccc([As](=O)(O)O)c(O)c1 | inactive: -0.04%
38 | CC(=O)Nc1ccc(Oc2c([N+](=O)[O-])cc([N+](=O)[O-])cc2[N+](=O)[O-])cc1 | inactive: 2.5%
39 | CC(=O)c1ccc(N2CC2c2ccncc2)cc1 (stereo not drawn) | inactive: 0.67%
40 | N#C/C(=C\c1ccc(N(CCBr)CCBr)cc1)C(N)=O | inactive: -0.72%
41 | COC(=O)C1(C)COP(=O)(NCc2ccccc2)OC1 (stereo not drawn) | inactive: -0.18%
42 | CC1C(=O)OC2CCN3CC=C(COC(=O)C(C)(O)C1(C)O)C23 (stereo not drawn) | inactive: -0.44%
43 | Cc1ccccc1CN(C)C(=O)COC(=O)C(O)(c1ccccc1)c1ccccc1 | inactive: 2.06%
44 | CCN(CC)CCOC(=O)C(O)(c1ccccc1)c1ccccc1 | inactive: -1.4%
45 | C[C@H]1OP(=O)(Oc2ccccc2)C[C@@H]2O[C@@H]21 (stereo partly drawn) | inactive: 6.1%
46 | C[C@@H]1C=CCP(=O)(Oc2ccccc2)O1 (stereo partly drawn) | inactive: -0.14%
47 | COc1ccccc1OP(=O)(Nc1ccc(C)cn1)Oc1ccccc1OC | inactive: 2.49%
48 | CC(C)[C@H]1C(=O)O[C@@H]2CCN3CC=C(COC(=O)[C@](C)(O)[C@]1(C)O)[C@H]23 | inactive: -7.4%

Row | Structure (SMILES) | activation
49 | Cc1ccc(OP(=O)(Nc2nccs2)Oc2ccc(C)cc2)cc1 | inactive: 2.99%
50 | CN1CCCC(OC(=O)C(c2ccccc2)c2ccccc2)C1 (stereo not drawn) | inactive: -15.2%
51 | Clc1ccc(Cl)c(NC2=NCC(CBr)S2)c1 (stereo not drawn) | inactive: -5.46%
52 | NC(=O)c1cc([N+](=O)[O-])cc([N+](=O)[O-])c1N | inactive: 2.71%
53 | CN(C(=O)Cc1ccc(Cl)c(Cl)c1)[C@H]1CCCC[C@H]1N1CCCC1 | inactive: -1.99%
54 | Cc1ccc(N/C(=N/P(=O)(N2CCOCC2)N2CCOCC2)N2CCOCC2)cc1 | inactive: -0.78%
55 | O=[N+]([O-])C1C(O)C(O)C([N+](=O)[O-])C(O)C1O (stereo not drawn) | inactive: 0.51%
56 | Nc1cc(N)c2nonc2c1[N+](=O)[O-] | inactive: -0.08%
57 | CC(C)CC(=O)NC(Sc1ccc(Cl)cc1)C(Cl)(Cl)Cl (stereo not drawn) | inactive: -5.07%
58 | Oc1ccccc1CNc1ccccn1 | inactive: 0.05%
59 | O=C(NC(Sc1ccncn1)C(Cl)(Cl)Cl)c1ccccc1 (stereo not drawn) | inactive: 0.5%
60 | Cc1cc(SC(NC(=O)c2ccc(F)cc2)C(Cl)(Cl)Cl)ncn1 (stereo not drawn) | inactive: -0.23%
61 | CCOP(=O)(Nc1ccccc1)OCC | inactive: -4.6%
62 | Cc1ccc(NP(=O)(Oc2ccccc2F)Oc2ccccc2F)nc1 | inactive: 5.64%
63 | CN(C(=O)Cc1ccc(Cl)c(Cl)c1)[C@H]1CCCC[C@@H]1N1CCCC1 | inactive: -0.54%
64 | CC(=O)Nc1ccc([As](=O)(O)O)cc1 | inactive: -5.45%
65 | O=C(O)c1ccccc1[As](=O)(O)O | inactive: -2.56%
66 | CCCC1OP(N)(=O)OCC1CC (stereo not drawn) | inactive: 4.78%
67 | CC(=O)O[C@]1(C)C(=O)OC/C2=C/CN(C)CCC(OC(=O)[C@@](O)(C(C)O)C[C@H]1C)C2=O (stereo partly drawn) | inactive: -1.39%
68 | O=P(Nc1nc2ccc(Cl)cc2s1)(c1ccccc1)c1ccccc1 | inactive: -3.36%
69 | CN(C)P(=O)(N(C)C)n1c(Nc2ccccc2)nnc1-c1ccccc1 | inactive: -0.69%
70 | CCN(N=Nc1nonc1N)c1nonc1N | inactive: -2.5%
71 | Nc1cccc2ccc([As](=O)(O)O)cc12 | inactive: -2.03%
72 | O=C(Nc1cc([As](=O)(O)O)ccc1O)c1ccccc1 | inactive: 1.25%

Row | Structure (SMILES) | activation
73 | O=P1(N(CCCl)CCCl)OCCCS1 (stereo not drawn) | inactive: 7.11%
74 | COC(=O)C1(C)COP(=O)(Nc2ccccc2)OC1 (stereo not drawn) | inactive: 0.16%
75 | O=[N+]([O-])c1cccc(NC2=NCC(CBr)S2)c1 (stereo not drawn) | inactive: -3.79%
76 | O=C(O)CNc1ccc([As](=O)(O)O)cc1 | inactive: -3.19%
77 | C/C=C1/C[C@@H](C)[C@](O)(CO)C(=O)OCC2=CCN3CC[C@@H](OC1=O)[C@@H]23 | inactive: -0.69%
78 | CC(C)(C)C(=O)NC(Sc1ccncn1)C(Cl)(Cl)Cl (stereo not drawn) | inactive: -1.61%
79 | O=[N+]([O-])c1ncn(CCn2ncnc2[N+](=O)[O-])n1 | inactive: -4.71%
80 | O=[N+]([O-])c1cccc2n[nH]nc12 | inactive: -5.55%
81 | CC(=O)N1C2C3N(C(C)=O)C1C1N(C(C)=O)C(C(N1C(C)=O)N3C(C)=O)N2C(C)=O | inactive: 0.67%
82 | Cc1ccc(NP(=O)(Oc2ccccc2)Oc2ccccc2)nc1 | inactive: -4.58%
83 | CCc1nc2c(n1)c1c(non1O)c1c2no[n+]1[O-] | inactive: 6.79%
84 | O=[N+]([O-])c1cc([N+](=O)[O-])c(CCNc2ccccc2)c([N+](=O)[O-])c1 | inactive: -4.35%
85 | COc1ccc(C2=NCC(CBr)S2)cc1 (stereo not drawn) | inactive: -1.59%
86 | CC(C)c1nc(Nc2ccccc2)n(P(=O)(N(C)C)N(C)C)n1 | inactive: 0.36%
87 | CC(C)=N/N=C(\N)N[N+](=O)[O-] | inactive: -3.26%
88 | CN(C)C(=O)OCCc1n(C)cc[n+]1C | inactive: -7.13%
89 | CC1CCN(C(=O)Oc2c(Cl)cc(Cl)c3cccnc23)CC1 | inactive: -3.34%
90 | c1cc(-c2nn[nH]n2)ccc1-c1nn[nH]n1 | inactive: 0.99%
91 | Nc1ccc([As](=O)(O)c2ccc(N)cc2)cc1 | inactive: 2.37%
92 | C[N+]1=C2C=CC=CC=C2SC12C([N+](=O)[O-])=CC([N+](=O)[O-])=C[C-]2[N+](=O)[O-] (stereo not drawn) | inactive: 2.29%
93 | CCN(/C(=N/P(=O)(N1CCOCC1)N1CCOCC1)N1CCOCC1)c1ccc(OC)cc1 | inactive: -2.92%
